Laboratory results taken from ChEMBL document CHEMBL5150055, “B-cell Lymphoma 6 Inhibitors: Current Advances and Prospects of Drug Development for Diffuse Large B-cell Lymphomas” (J Med Chem, 2022).

What was measured:
Assay type in all cases: cell-based
[1] = target: T1, B-cell lymphoma 6 protein (Homo sapiens, UniProt P41182); assay: Induction of BCL6 degradation in human SU-DHL-4 cells at 5 uM incubated for 90 mins by electrophoresis analysis
[2] = target: T1, B-cell lymphoma 6 protein; assay: Induction of BCL6 degradation in human SU-DHL-4 cells at 5 uM incubated for 5 mins by electrophoresis analysis
[3] = target: T1, B-cell lymphoma 6 protein; assay: Induction of BCL6 degradation in human SU-DHL-4 cells at 5 uM incubated for 2 hrs by electrophoresis analysis

What does the source list for `CNC(=O)COc1cc2cc(Nc3nc(N4C[C@H](C)C[C@H](C)C4)ncc3Cl)ccc2n(C)c1=O`?
Activity [1]: 80%; Activity [2]: 50%; Activity [3]: 90%
